Results on 32 compounds are retold here after PubChem BioAssay AID1688 (National Center for Advancing Translational Sciences (NCATS), 2009).

The structures appear in SMILES notation. This is a selection; strong and weak results do not stand in their true shares. Results filed as inconclusive are left out. Some structures show a salt or complex split into parts, the way the source records it. The source made the active and inactive calls. The call rests on the fitted dose curve; in most records, active means well fitted inhibition curve with a large enough effect; inconclusive means small, poorly fitted or top-dose-only effect, or effect the other way; inactive means no such curve, though single readings can be large or run the other way.
On the % scale 0 is the no-effect control and ±100 the full control effect.

This assay is described as follows: qHTS Multiplex Assay to Identify Dual Action Probes in a Cell Model of Huntington: Aggregate Formation (GFP). Further: nearly all actives have a fitted effect of over 60% in size. As to conditions: PC12 HttQ103-GFP aggregates, Acumen cytometry, 40 h; at 46.1 µM (top of the series) unless noted. Background: Quantitative high-throughput screening tests each substance at several concentrations.
With `COc1ccc(C(=O)NCC2(N3CCOCC3)CCCCC2)cc1OC`, the activity change, negative = inhibition was inactive: -5.41%.

As for `O=C(OC1CN2CCC1CC2)C1c2ccccc2C=Cc2ccccc21` (configuration not stated), the activity change, negative = inhibition is inactive: 9.7%.

In the case of `O=C(O)c1cccc(Nc2c([N+](=O)[O-])cc([N+](=O)[O-])cc2[N+](=O)[O-])c1`, the activity change, negative = inhibition was inactive: -23.8% [at 9.22 µM].

In the case of `N/C(=N\O)c1c(N)no[n+]1[O-]`, the activity change, negative = inhibition is inactive: 9.22%.

As for `CCOC(=O)C(CC)C1=NC(C)(C)Cc2ccccc21.O=[N+]([O-])c1cc([N+](=O)[O-])c(O)c([N+](=O)[O-])c1` (configuration not stated), the activity change, negative = inhibition was inactive: 10.4% [at 9.22 µM].

For `N#Cc1ccc(C(=O)NCC2(N3CCCCC3)CCCCC2)cc1`, the activity change, negative = inhibition is inactive: -3.41%.

For the compound `c1ccc(CN2CCC(Nc3ccccc3)CC2)cc1`, the activity change, negative = inhibition was inactive: 6.89%.

Regarding `Fc1ccccc1NC1CCN(Cc2ccccc2)CC1`, the activity change, negative = inhibition was inactive: 10.2%.

`CN(C)c1ccc(C(=O)NCC2(N3CCCCC3)CCCCC2)cc1`: the activity change, negative = inhibition is inactive: 4.69%.

For the compound `CCN1CCC(Nc2cccc(F)c2)CC1`, the activity change, negative = inhibition was inactive: -3.24%.

As for `CC(C)(C)OC(=O)N1CCC(Nc2ccccc2)CC1`, the activity change, negative = inhibition was inactive: 19.7%.

As for `CCOc1ncccc1C(=O)NCC1(N2CCOCC2)CCCCC1`, the activity change, negative = inhibition is inactive: -0.8%.

Regarding `CCCOc1ccc(C)cc1CN(CCCl)CCCl`, the activity change, negative = inhibition is inactive: -7.52% [at 9.22 µM].

Turning to `COc1cc(OC)cc(C(=O)NCC2(N3CCOCC3)CCCCC2)c1`, the activity change, negative = inhibition is inactive: -3.19%.

For `CCC(CO)(C(=O)OC1CN2CCC1CC2)c1ccccc1` (configuration not stated), the activity change, negative = inhibition is inactive: 22.3% [at 9.22 µM].

Consider `COc1ccc(C(=O)NCC2(N3CCCCC3)CCCCC2)c(OC)c1OC`, for which the activity change, negative = inhibition is inactive: 17.6%.

Regarding `N#CC1(Nc2ccccc2)CCN(Cc2ccccc2)CC1`, the activity change, negative = inhibition is inactive: -17.5% [at 9.22 µM].

Turning to `O=C(OC1CN2CCC1CC2)C1c2ccccc2Oc2ccccc21` (configuration not stated), the activity change, negative = inhibition is inactive: -0.585%.

With `CCOC(=O)N1CCC(Nc2ccc(OC)cc2)CC1`, the activity change, negative = inhibition is inactive: 0% [at 9.22 µM].

Turning to `O=C(NCC1(N2CCOCC2)CCCCC1)c1cc2ccccc2o1`, the activity change, negative = inhibition was inactive: 0.734% [at 9.22 µM].

`COc1ccc(NC2CCN(CCc3ccccc3)CC2)c(OC)c1`: the activity change, negative = inhibition is inactive: 7.61%.

With `CCOc1ccc(C)cc1CN(CCCl)CCCl`, the activity change, negative = inhibition is inactive: -12.9% [at 9.22 µM].

On to `Cc1ccc(OCC(C)C)c(CN(CCCl)CCCl)c1`, for which the activity change, negative = inhibition is inactive: 16% [at 9.22 µM].

For `N#CC1(Nc2ccccc2)CCN(CCc2ccccc2)CC1`, the activity change, negative = inhibition was inactive: -6.04%.

In the case of `O=C(NCC1(N2CCCCC2)CCCCC1)c1cccc([N+](=O)[O-])c1`, the activity change, negative = inhibition was inactive: -14.2%.

As for `O=C(NCC1(N2CCOCC2)CCCCC1)c1cc(=O)[nH]c2ccccc12`, the activity change, negative = inhibition was inactive: -12% [at 9.22 µM].

For the compound `CN1CCN(CCOC(=O)C(O)(c2ccccc2)c2ccccc2)CC1`, the activity change, negative = inhibition is inactive: 1.7%.

Regarding `COc1ccc(NC2CCN(C(=O)OC(C)(C)C)CC2)cc1`, the activity change, negative = inhibition is inactive: 13.2%.

Turning to `COc1ccc(CN(CCCl)CCCl)cc1Cl`, the activity change, negative = inhibition was inactive: 15.1% [at 9.22 µM].

For `CN(C)c1cccc(C(=O)NCC2(N3CCCCC3)CCCCC2)c1`, the activity change, negative = inhibition is inactive: -2.74%.

Take `O=C(OC1CN2CCC1CC2)c1ccc([N+](=O)[O-])cc1` (configuration not stated): the activity change, negative = inhibition was inactive: -9.09% [at 9.22 µM].

Take `COc1ccc2c(c1O)-c1c(O)c(OC)cc3c1[C@H](C2)[N+](C)(C)CC3.O=[N+]([O-])c1cc([N+](=O)[O-])c([O-])c([N+](=O)[O-])c1[O-]`: the activity change, negative = inhibition was inactive: -36.5% [at 9.22 µM].
